One substance from article PMC8903741 can be followed below.

Amino acid sequences for entries named in this document (tags omitted). A change or cut given only in a name is not applied to a line headed by its entry.
UniProt P14780: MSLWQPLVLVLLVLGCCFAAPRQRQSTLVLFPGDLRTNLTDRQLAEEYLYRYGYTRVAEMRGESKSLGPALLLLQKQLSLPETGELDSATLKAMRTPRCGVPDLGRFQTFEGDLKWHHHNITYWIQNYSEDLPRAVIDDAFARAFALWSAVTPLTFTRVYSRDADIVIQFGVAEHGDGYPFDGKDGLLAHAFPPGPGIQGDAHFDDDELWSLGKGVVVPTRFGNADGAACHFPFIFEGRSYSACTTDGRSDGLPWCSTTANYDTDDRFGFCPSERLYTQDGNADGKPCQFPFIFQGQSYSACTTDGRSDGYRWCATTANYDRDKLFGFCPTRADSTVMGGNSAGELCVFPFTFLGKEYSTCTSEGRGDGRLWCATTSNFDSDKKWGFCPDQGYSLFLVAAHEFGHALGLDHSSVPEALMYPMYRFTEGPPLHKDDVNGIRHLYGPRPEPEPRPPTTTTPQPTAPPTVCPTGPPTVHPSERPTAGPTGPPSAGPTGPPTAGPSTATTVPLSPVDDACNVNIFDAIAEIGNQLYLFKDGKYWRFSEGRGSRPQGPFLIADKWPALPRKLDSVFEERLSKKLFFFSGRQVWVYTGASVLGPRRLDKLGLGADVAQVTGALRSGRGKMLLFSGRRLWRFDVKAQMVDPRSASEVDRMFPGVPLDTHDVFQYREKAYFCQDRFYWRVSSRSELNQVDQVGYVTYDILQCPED

The target of this assay is recombinant anti-hMMP9 antibody (full-sized, VH and VL of GS-5745, human IgG4 constant region, human kappa constant region) (human). In words: ELISA; sandwich ELISA as above with antibody of clone #6-5 immobilised and different concentrations of hMMP9; dose-response curves fitted to a four-parameter equation.

With “human matrix metalloproteinase 9 (from UniProt P14780 20-707) (enzyme)”, the limit of detection (LOD) came out at 28.9 ng.
